From patent US10118930B2, “Piperidinylpyrazolopyrimidinones and their use” (BAYER PHARMA AKTIENGESELLSCHAFT, priority 2015, dated 2018) come the findings set out here.

Each structure is given as a SMILES string. Structures can show the parent of a compound that is named as a salt.

The term IC50 denotes the midpoint of a concentration-inhibition curve. Lower therefore signals greater potency.

In this assay the test system is clot lysis (fibrinolysis) in diluted human citrated plasma, tPA-induced. Put plainly: Plasma-based clot lysis assay (5%). In kind it is biochemical. Particulars: human citrated platelet-poor plasma 5%, fibrinogen 3 μM, CaCl2 10 mM, tPA 0.2 nM, 37° C., OD at 405 nm. Put shortly: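 Compounds added to 5% platelet-poor citrated human plasma with 3 μM fibrinogen in 20 mM HEPES, 150 mM NaCl, 0.01% Brij, pH 7. Clotting and lysis started with 10 mM CaCl2 and 0.2 nM tPA at 37° C. IC50 derived by comparing time courses with a blank control reaction.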
`Cc1nn2c(C3CCNCC3)cc(=O)[nH]c2c1-c1nnc(C2CCC2)o1` [Example 340, 3-(5-cyclobutyl-1,3,4-oxadiazol-2-yl)-2-methyl-7-(piperidin-4-yl)pyrazolo[1,5-a]pyrimidin-5 (4H)-one hydrochloride] had an IC50 of 28 nM.

With `O=c1cc(C2CCNCC2)n2ncc(-c3nc(C4(Cl)CC4)cs3)c2[nH]1` [Example 336, 3-[4-(1-chlorocyclopropyl)-1,3-thiazol-2-yl]-7-(piperidin-4-yl)pyrazolo[1,5-a]pyrimidin-5(4H)-one hydrochloride], inhibition was half-maximal at 25 nM (IC50).

`O=c1cc(C2CCNCC2)n2ncc(-c3noc(C4CC4)n3)c2[nH]1` [Example 380, 3-(5-Cyclopropyl-1,2,4-oxadiazol-3-yl)-7-(piperidin-4-yl)pyrazolo[1,5-a]pyrimidin-5(4H)-one hydrochloride]: the midpoint of inhibition, the IC50, lay at 14 nM.

For `O=c1cc(C2CCNCC2)n2ncc(-c3nc(-c4cccc(Cl)c4)no3)c2[nH]1` [Example 153, 3-[3-(3-chlorophenyl)-1,2,4-oxadiazol-5-yl]-7-(piperidin-4-yl)pyrazolo[1,5-a]pyrimidin-5(4H)-one hydrochloride], the IC50 came to 31 nM.

The molecule `O=c1cc(C2CCNCC2)n2ncc(S(=O)(=O)c3ccccc3)c2[nH]1` [Example 73, 3-(Phenylsulfonyl)-7-(piperidin-4-yl)pyrazolo[1,5-a]pyrimidin-5(4H)-one hydrochloride] showed an IC50 of 12 nM.

On to `O=c1cc(C2CCNCC2)n2ncc(-c3nnc(CCc4ccccc4)o3)c2[nH]1` [Example 283, 3-[5-(2-phenylethyl)-1,3,4-oxadiazol-2-yl]-7-(piperidin-4-yl)pyrazolo[1,5-a]pyrimidin-5(4H)-one hydrochloride], for which the IC50 is 10 nM.
